From BindingDB's records for 21208801

The chains behind the UniProt entries cited, without tags or fusion partners. Where a name states a change or a piece, a line headed by the entry shows the natural chain unless it says otherwise.
UniProt B5SU02: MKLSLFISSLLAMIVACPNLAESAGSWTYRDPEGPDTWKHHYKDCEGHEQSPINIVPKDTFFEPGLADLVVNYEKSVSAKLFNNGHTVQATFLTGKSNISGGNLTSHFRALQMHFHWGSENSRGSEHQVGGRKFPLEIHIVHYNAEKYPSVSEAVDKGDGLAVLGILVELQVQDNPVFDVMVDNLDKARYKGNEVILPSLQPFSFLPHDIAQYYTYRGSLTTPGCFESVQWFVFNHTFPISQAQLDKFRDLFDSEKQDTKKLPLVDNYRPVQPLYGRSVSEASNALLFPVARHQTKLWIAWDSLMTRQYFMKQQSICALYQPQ

Target: Carbonic anhydrase (Stylophora pistillata, UniProt B5SU02)
Assay: Inhibition of Stylophora pistillata carbonic anhydrase by stopped-flow CO2 hydration assay

O=[As](O)(O)c1ccccc1
Ki: 780 µM
